Measurements as given in US10927085B2, “1,2-naphthoquinone based derivative and method of preparing the same” (HUEN Co., Ltd., priority 2013, dated 2021).

Chains of the proteins cited; added tags and fusions are not shown.
UniProt P15559, whole entry, species assumed: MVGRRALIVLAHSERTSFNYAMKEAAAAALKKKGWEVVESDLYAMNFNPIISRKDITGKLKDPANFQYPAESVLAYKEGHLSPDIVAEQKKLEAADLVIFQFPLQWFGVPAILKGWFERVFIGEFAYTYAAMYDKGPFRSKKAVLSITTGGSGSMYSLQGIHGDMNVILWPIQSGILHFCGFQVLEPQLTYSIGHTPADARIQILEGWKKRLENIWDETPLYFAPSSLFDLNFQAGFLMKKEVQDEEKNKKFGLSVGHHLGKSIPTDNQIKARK

Assays:
NQO1 protein = NQO1 protein (Homo sapiens, UniProt P15559); test: NQO1 activity measurement (cytochrome C reduction); type: biochemical
Procedure: An enzyme reaction solution included 25 mM Tris/HCl (pH 7.4), 0.14% bovine serum albumin, 200 μM NADH, 77 μM cytochrome C, and 5 ng of NQO1 protein. Enzymatic reaction was initiated by adding NADH and performed at 37° C. In this regard, a reaction rate was measured by observing absorbance, which was increased due to reduction of cytochrome C, at 550 nm for 10 minutes and NQO1 activity was represented as an amount of reduced cytochrome C [nmol cytochrome C reduced/min/μg protein].
Extinction coefficient for cytochrome C:21.1 mmol/L/cm=21.1 μmol/ml/cm

C57BL/6J Lep ob/ob mice = test: Weight loss effects in obese mice (ob/ob); conditions: mouse, in vivo, po
Procedure: 6.5 week-old C57BL/6J Lep ob/ob mice having genetic obesity characteristics available from ORIENTBIO were prepared. Two mice were raised in each polycarbonate breeding cage (200 W×260 L×130H (mm), Three-shine) in which temperature was 22 to 24° C., relative humidity was 30 to 50%, illuminance was 150 to 300 lux, night and day were 12 hours, and exhaust was performed at 10 to 15 air changes per hour. As a feed, low fat diet (11.9 kcal % fat, 5053, Labdiet) manufactured by ORIENTBIO was used. The feed was contained in a feeder and free intake was allowed. As drinking water, water, which was contained in a 250 mL polycarbonate based bottle, purified through a filter and a sterilizer was used and free intake was allowed.
The Compounds According to Examples 1 and 2 synthesized in the present invention were orally administered to three C57BL/6J Lep ob/ob mice in an amount of 100 mg/kg, respectively, once every day for two weeks. For administration, a disposable syringe fitted with a sonde for oral administration was used and 10 ml/kg of the compound was orally administered into the stomach. As controls, three C57BL/6J Lep ob/ob mice were administered 0.1% SLS in an amount of 100 mg/kg in the same manner as described above. After administration, a time-dependent weight increase ratio was measured and results are illustrated in FIG. 1 below.
Weights of the experimental animals were measured immediately before administration of a test material and six times a week from an administration initiation day to a test termination day. Increased total weights were calculated by subtracting weights measured on an experiment initiation day from weights measured one day before an experiment termination day. Food intake amounts were calculated by measuring feed supply amounts and remaining amounts twice a week from an initiation day of test material administration to a test termination day for each individual.
Experiments were performed under the same conditions as in Experimental Example 3-1 except that 10.5 week-old C57BL/6J Lep ob/ob mice having genetic obesity characteristics available from ORIENTBIO were prepared, the compounds according to Examples 4 and 5 were administered to three C57BL/6J Lep ob/ob mice in an amount of 150 mg/kg, 150 mg/kg of 0.1% SLS was administered to each of three C57BL/6J Lep ob/ob mice as controls, and experiments were performed for a total of six days. Weight increase ratios, weight change, and intake amounts depending on administration time were measured and results are illustrated in FIG. 2 below. […]

| Structure (SMILES) | NQO1 activity (5 μM, [nmol cytochrome C reduced/min/μg protein]) (NQO1 protein) | also measured |
| --- | --- | --- |
| COc1cccc2c1-c1oc(CN(C)C)nc1C(=O)C2=O [Example 11, 2-((dimethylamino)methyl)-9-methoxynaphtho[2,1-d]oxazole-4,5-dione] | 149.2 nmol cytochrome C reduced/min/μg protein | – |
| CC(C)(C)c1nc2c(o1)C(=O)C(=O)c1ccccc1-2 [Example 28, 2-tert-butylnaphtho[1,2-d]oxazole-4,5-dione] | 254.9 nmol cytochrome C reduced/min/μg protein | weight increase ratio vs controls (FIG. 3) (C57BL/6J Lep ob/ob mice; 100 mg/kg): significantly decreased |
| CC(C)(C)c1nc2c(o1)C(=O)C(=O)c1cc(N)ccc1-2 [Example 30, 7-amino-2-tert-butylnaphtho[1,2-d]oxazole-4,5-dione] | 213.0 nmol cytochrome C reduced/min/μg protein | weight increase ratio vs controls (FIG. 5) (C57BL/6J Lep ob/ob mice; 150 mg/kg): significantly decreased |
| O=C1C(=O)c2oc(-c3ccccc3)nc2-c2ccccc21 [Example 27] | 241.9 nmol cytochrome C reduced/min/μg protein | weight increase ratio vs controls (FIG. 4) (C57BL/6J Lep ob/ob mice; 100 mg/kg): significantly decreased |
| CC(C)(C)c1nc2c(o1)C(=O)C(=O)c1cc(Cl)ccc1-2 [Example 31, 2-tert-butyl-7-chloronaphtho[1,2-d]oxazole-4,5-dione] | 220.3 nmol cytochrome C reduced/min/μg protein | – |
| CN(C)Cc1nc2c(o1)-c1ccccc1C(=O)C2=O [Example 5, 2-((dimethylamino)methyl)naphtho[2,1-d]oxazole-4,5-dione] | 259.5 nmol cytochrome C reduced/min/μg protein | weight increase ratio vs controls (FIG. 2) (C57BL/6J Lep ob/ob mice; 150 mg/kg): significantly decreased |
